## Permeability data for macrocyclic peptides

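Lipid, pH, incubation time, direction and concentration are not recorded in the data file. The list need not hold all peptides of the study. Entries at the database's floor value (log10 P of -10) are not listed.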

PAMPA is the parallel artificial membrane permeability assay, which has no cells and reads passive diffusion. Values are log10 P with P in cm/s, so -5 is more permeable than -7.

CC(=O)N1CCC[C@H]1C(=O)N(C)[C@@H](CC(C)C)C(=O)N[C@@H]1C(=O)N[C@H](CC(C)C)C(=O)N[C@H](CC(C)C)C(=O)N[C@H](CC(C)C)C(=O)N[C@@H](C)C(=O)N[C@H](CC(C)C)C(=O)N2CCC[C@@H]2C(=O)O[C@@H]1C has PAMPA -9.00 (log10 cm/s).
CC(=O)N1CCC[C@H]1C(=O)N(C)[C@@H](CC(C)C)C(=O)N[C@@H]1C(=O)N[C@H](CC(C)C)C(=O)N[C@@H](CC(C)C)C(=O)N(C)[C@@H](CC(C)C)C(=O)N[C@@H](C)C(=O)N[C@H](CC(C)C)C(=O)N2CCC[C@H]2C(=O)O[C@@H]1C has PAMPA -5.82 (log10 cm/s).
CC(=O)N1CCC[C@H]1C(=O)N(C)[C@H](CC(C)C)C(=O)N[C@@H]1C(=O)N(C)[C@@H](CC(C)C)C(=O)N(C)[C@H](CC(C)C)C(=O)N(C)[C@H](CC(C)C)C(=O)N(C)[C@@H](C)C(=O)N[C@H](CC(C)C)C(=O)N2CCC[C@H]2C(=O)O[C@@H]1C has PAMPA -5.25 (log10 cm/s).
CC(=O)N1CCC[C@H]1C(=O)N(C)[C@H](CC(C)C)C(=O)N[C@@H]1C(=O)N[C@H](CC(C)C)C(=O)N(C)[C@H](CC(C)C)C(=O)N[C@@H](CC(C)C)C(=O)N(C)[C@H](C)C(=O)N[C@@H](CC(C)C)C(=O)N2CCC[C@H]2C(=O)O[C@@H]1C has PAMPA -5.32 (log10 cm/s).
CC(=O)N1CCC[C@H]1C(=O)N(C)[C@@H](CC(C)C)C(=O)N[C@@H]1C(=O)N(C)[C@H](CC(C)C)C(=O)N[C@H](CC(C)C)C(=O)N(C)[C@@H](CC(C)C)C(=O)N(C)[C@H](C)C(=O)N[C@@H](CC(C)C)C(=O)N2CCC[C@@H]2C(=O)O[C@@H]1C has PAMPA -5.30 (log10 cm/s).
CC(=O)N[C@@H]1C(=O)N2CCC[C@H]2C(=O)N(C)[C@H](CC(C)C)C(=O)N[C@@H](CC(C)C)C(=O)N[C@@H](CC(C)C)C(=O)N[C@@H](CC(C)C)C(=O)N[C@@H](C)C(=O)N[C@@H](CC(C)C)C(=O)N2CCC[C@@H]2C(=O)O[C@@H]1C has PAMPA -6.64 (log10 cm/s).
CC(=O)N1CCC[C@@H]1C(=O)N(C)[C@@H](CC(C)C)C(=O)N[C@@H]1C(=O)N[C@@H](CC(C)C)C(=O)N(C)[C@H](CC(C)C)C(=O)N(C)[C@@H](CC(C)C)C(=O)N(C)[C@@H](C)C(=O)N[C@@H](CC(C)C)C(=O)N2CCC[C@@H]2C(=O)O[C@@H]1C has PAMPA -5.21 (log10 cm/s).
CC(=O)N1CCC[C@H]1C(=O)N(C)[C@H](CC(C)C)C(=O)N[C@@H]1C(=O)N(C)[C@H](CC(C)C)C(=O)N(C)[C@H](CC(C)C)C(=O)N[C@H](CC(C)C)C(=O)N(C)[C@H](C)C(=O)N[C@@H](CC(C)C)C(=O)N2CCC[C@H]2C(=O)O[C@@H]1C has PAMPA -4.99 (log10 cm/s).
CC(=O)N1CCC[C@@H]1C(=O)N(C)[C@@H](CC(C)C)C(=O)N[C@@H]1C(=O)N[C@H](CC(C)C)C(=O)N(C)[C@@H](CC(C)C)C(=O)N(C)[C@@H](CC(C)C)C(=O)N[C@@H](C)C(=O)N[C@H](CC(C)C)C(=O)N2CCC[C@H]2C(=O)O[C@@H]1C has PAMPA -5.46 (log10 cm/s).
CC(=O)N1CCC[C@@H]1C(=O)N(C)[C@@H](CC(C)C)C(=O)N[C@@H]1C(=O)N[C@H](CC(C)C)C(=O)N(C)[C@@H](CC(C)C)C(=O)N[C@H](CC(C)C)C(=O)N[C@@H](C)C(=O)N[C@H](CC(C)C)C(=O)N2CCC[C@@H]2C(=O)O[C@@H]1C has PAMPA -5.97 (log10 cm/s).
CC(=O)N1CCC[C@@H]1C(=O)N(C)[C@@H](CC(C)C)C(=O)N[C@@H]1C(=O)N[C@H](CC(C)C)C(=O)N[C@H](CC(C)C)C(=O)N(C)[C@@H](CC(C)C)C(=O)N(C)[C@@H](C)C(=O)N[C@@H](CC(C)C)C(=O)N2CCC[C@@H]2C(=O)O[C@@H]1C has PAMPA -5.58 (log10 cm/s).
CC(=O)N1CCC[C@@H]1C(=O)N(C)[C@@H](CC(C)C)C(=O)N[C@@H]1C(=O)N[C@H](CC(C)C)C(=O)N[C@@H](CC(C)C)C(=O)N[C@@H](CC(C)C)C(=O)N[C@@H](C)C(=O)N[C@@H](CC(C)C)C(=O)N2CCC[C@@H]2C(=O)O[C@@H]1C has PAMPA -6.97 (log10 cm/s).
CC(=O)N1CCC[C@H]1C(=O)N[C@@H]1C(=O)N[C@H](CC(C)C)C(=O)N[C@H](CC(C)C)C(=O)N[C@@H](CC(C)C)C(=O)N(C)[C@H](CC(C)C)C(=O)N(C)[C@H](C)C(=O)N[C@@H](CC(C)C)C(=O)N2CCC[C@@H]2C(=O)O[C@@H]1C has PAMPA -5.83 (log10 cm/s).
CC(=O)N1CCC[C@@H]1C(=O)N(C)[C@H](CC(C)C)C(=O)N[C@@H]1C(=O)N[C@@H](CC(C)C)C(=O)N[C@@H](CC(C)C)C(=O)N(C)[C@H](CC(C)C)C(=O)N(C)[C@H](C)C(=O)N[C@@H](CC(C)C)C(=O)N2CCC[C@H]2C(=O)O[C@@H]1C has PAMPA -5.85 (log10 cm/s).

Collected by the curators of CycPeptMPDB (Li et al. 2023) from Kelly et al. 2021, doi:10.1021/jacs.0c06115.